According to patent US20110245537A1, “L-carnitine calcium fumarate, preparation method and application for the same” (Liaoning Konepnutra Co., Ltd, priority 2009, published 2011):

Assay: water solubility of the powder product
Type: physicochemical
Conditions: for solubility: water
Method: The obtained L-carnitine calcium fumarate is in uniform powder form with good fluidity, more than 98% of which is smaller than 40 mesh size. […] The product has a calcium content of 6.76% with good non-hygrosopicity.
Fumaric acid (23.2 g, 0.2 mol) is suspended in 740 mL water and calcium hydroxide (7.4 g, 0.1 mol) is added under stirring. The mixture is heated up to 70° C. under stirring violently till the solution is clean and allowed to react for two hours, then concentrated under reduced pressure. The dried substance is suspended in 200 mL ethanol under stirring thoroughly, then L-carnitine (16.12 g, 0.1 mol) is added and allowed to react for 3 h at 60˜70° C. Thereafter the obtained substance is cooled at −5˜5° C. for five hours. L-carnitine calcium fumarate is thus obtained by filtration, and in this case 39.5 g of product can be obtained after drying, the yield being 95%.
The obtained L-carnitine calcium fumarate is in uniform powder form and has good fluidity, greater than 98% of which is smaller than 40 mesh in granular size. […] The product has a calcium content of 9.28%, with better non-hygrosopicity.

L-Carnitine Calcium Fumarate (2:2:1) [Example 1]
solubility: 1.8 g/100 mL water

L-Carnitine Calcium Fumarate (1:2:1) [Example 2]
water-solubility (cold water, powder smaller than 40 mesh size): 3.5 g/100 mL | solubility: 3.5 g/100 mL water
